Measured values: US9278960B2, “Quinoline carboxamide and quinoline carbonitrile derivatives as mGluR2-negative allosteric modulators, compositions, and their use” (Merck Sharp & Dohme Corp., priority 2011, dated 2016)
Where a name gives a salt, the structure may show the parent alone.

The chains behind the UniProt entries cited, without tags or fusion partners. Residues count along the entry.
UniProt Q14416, 19-872: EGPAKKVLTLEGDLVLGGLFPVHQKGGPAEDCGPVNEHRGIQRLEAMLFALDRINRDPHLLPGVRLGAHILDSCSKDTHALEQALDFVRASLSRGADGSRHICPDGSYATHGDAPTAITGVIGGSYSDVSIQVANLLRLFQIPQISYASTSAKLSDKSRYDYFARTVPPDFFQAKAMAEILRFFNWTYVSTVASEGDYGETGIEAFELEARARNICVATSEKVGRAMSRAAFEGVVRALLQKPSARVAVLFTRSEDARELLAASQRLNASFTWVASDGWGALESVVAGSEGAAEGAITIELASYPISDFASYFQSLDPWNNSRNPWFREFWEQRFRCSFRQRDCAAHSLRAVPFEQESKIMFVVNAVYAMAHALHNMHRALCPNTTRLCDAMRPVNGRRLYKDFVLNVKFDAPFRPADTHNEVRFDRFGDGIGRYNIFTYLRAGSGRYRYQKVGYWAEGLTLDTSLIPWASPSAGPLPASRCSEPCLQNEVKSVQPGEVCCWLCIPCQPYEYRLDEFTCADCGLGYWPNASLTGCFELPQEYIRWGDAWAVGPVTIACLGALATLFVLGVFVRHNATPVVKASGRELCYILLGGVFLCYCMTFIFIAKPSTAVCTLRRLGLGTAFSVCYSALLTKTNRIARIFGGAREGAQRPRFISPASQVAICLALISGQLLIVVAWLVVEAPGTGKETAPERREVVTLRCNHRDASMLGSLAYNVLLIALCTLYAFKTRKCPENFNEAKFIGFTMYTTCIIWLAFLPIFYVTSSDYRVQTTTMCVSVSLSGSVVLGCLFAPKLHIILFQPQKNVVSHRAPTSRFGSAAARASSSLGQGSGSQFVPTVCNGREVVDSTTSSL

biological target: human mGluR2 (Homo sapiens (Human), UniProt Q14416); test: FLIPR Ca2+ mobilization antagonist assay in CHO dhfr- cells expressing recombinant human mGluR2 and Gα16; type: cell-based; conditions: antagonist response after addition of 2,500 nM glutamate, Fluo-4 AM, FLIPR384

| Compound | IC50 [nM] |
| --- | --- |
| NC(=O)c1cc(-c2ccc(OC(F)F)cc2)c2ccccc2n1 [Example 1-10, 4-[4-(difluoromethoxy)phen-yl]quinoline-2-carboxamide] | 660 |
| Cc1ccc(-c2cc(C(N)=O)nc3cc(C)ccc23)cc1 [Example 1-25, 7-methyl-4-(4-methylphenyl)quinoline-2-carboxamide] | 407 |
| Cn1cc(-c2cc(C(N)=O)nc3cc(CN4CCC(F)CC4)ccc23)cn1 [Example 4-68, 7-[(4-fluoropiperidin-1-yl)methyl]-4-(1-methyl-1H-pyrazol-4-yl)quinoline-2-carboxamide] | 149 |
| NC(=O)c1cc(-c2ccc(F)cc2)c2ccc(CN3CCN4CCC[C@@H]4C3)cc2n1 [Example 4-105, 4-(4-fluorophenyl)-7-[(8aR)-hexahydropyrrolo [1,2-a]pyrazin-2(1H)-ylmethyl]quinoline-2-carboxamide] | 172 |
| Cc1ccc2c(-c3ccc(C#N)cc3)cc(C(N)=O)nc2c1 [Example 1-29, 4-(4-cyanophenyl)-7-methylquinoline-2-carboxamide] | 190 |
| NC(=O)c1cc(C2=CCCC2)c2ccccc2n1 [Example 1-11, 4-cyclopent-1-en-1-ylquinoline-2-carboxamide (TFA salt)] | 822 |
| N#Cc1cc(-c2ccc(F)cc2)c2ccc(CN3CCCC3=O)cc2n1 [Example 2-36, 4-(4-fluorophenyl)-7-[(2-oxopyrrolidin-1-yl)methyl]quinoline-2-carbonitrile] | 3060 |
| C[C@H]1CNC(C(F)(F)F)CN1Cc1ccc2c(-c3ccc(F)cc3)cc(C(N)=O)nc2c1 (single isomer, unassigned) [Example 4-22-B, 4-(4-Fluorophenyl)-7-(((2S)-2-methyl-5(R or S)-(trifluoromethyl)piperazin-1-yl)methyl)quinoline-2-carboxamide] | 11 |
| CC(C)(C)OC(=O)N(Cc1ccc2c(-c3ccc(F)cc3)cc(C(N)=O)nc2c1)C(=O)OC(C)(C)C [Example 2-23, di-tert-butyl {[2-carbamoyl-4-(4-fluorophenyl)quinolin-7-yl]methyl}imidodi-carbonate] | 456 |
| CC1(C)CC(=O)N(Cc2ccc3c(-c4ccc(F)cc4)cc(C#N)nc3c2)C(=O)C1 [Example 2-12, 7-[(4,4-dimethyl-2,6-dioxopiperidin-1-yl)methyl]-4-(4-fluorophenyl)quinoline-2-carbonitrile] | 475 |
| NC(=O)c1cc(-c2ccc(F)cc2)c2ccc(CN3CCNC(CF)C3)cc2n1 (stereo not shown) [Example 4-111, 7-{[3-(fluoromethyl)piper-azin-1-yl]methyl}-4-(4-fluorophenyl)quino-line-2-carboxamide] | 80 |
| NC(=O)c1cc(-c2ccc(F)cc2)c2ccc(CN3CCC4(CCOC4)CC3)cc2n1 [Example 4-52, 4-(4-fluorophenyl)-7(2-oxa-8-azaspiro[4.5]dec-8-ylmethyl)quinoline-2-carboxamide] | 93 |
| NC(=O)c1cc(-c2ccc(F)cc2)c2ccc(CN3CCCC3C(F)(F)F)cc2n1 (stereo not shown) [Example 4-27, 4-(4-fluorophenyl)-7-{[2-(trifluoromethyl)pyrrolidin-1-yl]methyl}quinoline-2-carboxamide] | 183 |
| Cc1ccc(-c2cc(C(N)=O)nc3ccccc23)c(F)c1 [Example 1-21, 4-(2-fluoro-4-methylphenyl)quinoline-2-carboxamide] | 124 |
| NC(=O)c1cc(-c2ccc(Br)cc2)c2ccccc2n1 [Example 1-15, 4-(4-bromophenyl)quinoline-2-carboxamide] | 169 |
| CCC(O)(c1cn(Cc2ccc3c(-c4ccc(OC)c(OC)c4)cc(C(N)=O)nc3c2)cn1)C(F)(F)F (stereo not shown) [Example 3-46, 4-(3,4-dimethoxyphenyl)-7-({4-[1-hydroxy-1-(trifluoromethyl)propyl]-1H-imidazol-1-yl}methyl)quinoline-2-carboxamide] | 206 |
| CC(=O)NC1CCN(Cc2ccc3c(-c4ccc(F)cc4)cc(C(N)=O)nc3c2)C1 (stereo not shown) [Example 4-35, 7-{[3-(acetylamino)pyrrol-idin-1-yl]methyl}-4-(4-fluorophenyl)quino-line-2-carboxamide] | 187 |
| C[C@@H]1CN(Cc2ccc3c(-c4cnn(C(F)F)c4)cc(C(N)=O)nc3c2)C[C@H](C(F)(F)F)O1 [Example 4-118, 4-[1-(difluoromethyl)-1H-pyrazol-4-yl]-7-{[(2R,6R)-2-methyl-6-(trifluoromethyl)morpholin-4-yl]methyl}quinoline-2-carboxamide] | 13 |
| Cn1cc(-c2cc(C(N)=O)nc3cc(CN4C[C@H](C(F)(F)F)OC(C)(C)C4)ccc23)cn1 [Example 4-95, 7-{[(6R)-2,2-dimethyl-6-(trifluoromethyl)morpholin-4-yl]methyl}-4-(1-methyl-1H-pyrazol-4-yl)quinoline-2-carboxamide] | 11 |
| NC(=O)c1cc(-c2cnn(CF)c2)c2ccc(CN3CCOC(C(F)(F)F)C3)cc2n1 (stereo not shown) [Example 4-80, 4-[1-(fluoromethyl)-1H-pyrazol-4-yl]-7-{[2-(trifluoromethyl)morpholin-4-yl]methyl}quinoline-2-carboxamide] | 15 |
| CN1CCN(Cc2ccc3c(-c4ccc(F)cc4)cc(C(N)=O)nc3c2)CC1 [Example 4-43, 4-(4-fluorophenyl)-7-[(4-methylpiperazin-1-yl)methyl]quinoline-2-carboxamide] | 252 |
| Cn1cc(-c2cc(C(N)=O)nc3cc(CN4CCC[C@H](O)C4)ccc23)cn1 [Example 4-122, 7-{[(3S)-3-hydroxypiperidin-1-yl]methyl}-4-(1-methyl-1H-pyrazol-4-yl)quinoline-2-carboxamide] | 931 |
| COc1ccc(-c2cc(C(N)=O)nc3cc(CN4C(=O)CCC4=O)ccc23)c(F)c1 [Example 2-39, 7-[(2,5-dioxopyrrolidin-1-yl)methyl]-4-(2-fluoro-4-methoxyphenyl)quinoline-2-carboxamide] | 8 |
| COC(=O)c1cn(Cc2ccc3c(-c4ccc(F)cc4)cc(C(N)=O)nc3c2)cn1 [Example 3-27, methyl 1-{[2-carbamoyl-4-(4-fluorophenyl)quin-olin-7-yl]methyl}-1H-imidazole-4-carboxylate] | 23 |
| Cc1ccc(-c2cc(C(N)=O)nc3ccccc23)c(C#N)c1 [Example 1-23, 4-(2-cyano-4-methylphenyl)quinoline-2-carboxamide] | 135 |

Continued, values first:

| IC50 [nM] | Compound |
| --- | --- |
| 9 | COc1ccc(-c2cc(C(N)=O)nc3cc(CCc4cccnc4N)ccc23)cc1 [Example 8-30, 7-[2-(2-aminopyridin-3-yl)ethyl]-4-(4-methoxyphenyl) quinoline-2-carboxamide] |
| 16 | COc1ccc(-c2cc(C(N)=O)nc3cc(C(C)Cc4cccnc4N)ccc23)cc1 (stereo not shown) [Example 8-37, 7-[2-(2-aminopyridin-3-yl)-1-methylethyl]-4-(4-methoxyphenyl) quinoline-2-carboxamide] |
| 6 | COc1ccc(-c2cc(C(N)=O)nc3cc(CCc4cnc(C#N)nc4)ccc23)c(F)c1 [Example 8-33, 7-[2-(2-cyanopyrimidin-5-yl)ethyl]-4-(2-fluoro-4-methoxyphenyl) quinoline-2-carboxamide] |
| 10 | COc1ccc(-c2cc(C(N)=O)nc3cc(C(C)Cc4ccc(CF)nc4)ccc23)c(F)c1 (stereo not shown) [Example 8-48, 4-(2-fluoro-4-methoxyphenyl)-7-{2-[6-(fluoromethyl)pyridin-3-yl]-1-methylethyl} quinoline-2-carboxamide] |
| 15 | NC(=O)c1cc(-c2ccc(F)cc2)c2ccc(C(O)Cc3ccc(Cl)nc3)cc2n1 (single isomer, unassigned) [Example 8-2, 7-[2-(6-Chloropyridin-3-yl)-1(R or S)-hydroxyethyl]-4-(4-fluorophenyl)quinoline-2-carboxamide] |
| 20 | CC(Cc1cccnc1)c1ccc2c(-c3ccc(F)cc3)cc(C(N)=O)nc2c1 (stereo not shown) [Example 8-24, 4-(4-fluorophenyl)-7-(1-methyl-2-pyridin-3-ylethyl)quinoline-2-carboxamide] |
| 39 | COc1ccc(Cc2ccc3c(-c4cnn(C)c4)cc(C(N)=O)nc3c2F)cn1 [Example 7-38, 8-fluoro-7-[(6-methoxypyridin-3-yl)methyl]-4-(1-methyl-1H-pyrazol-4-yl)quinoline-2-carboxamide] |
| 7 | Cn1cc(-c2cc(C(N)=O)nc3cc(Cc4cc(Cl)nc(C(F)(F)F)c4)ccc23)cn1 [Example 6-25, 7-{[2-chloro-6-(trifluoromethyl)pyridin-4-yl]methyl}-4-(1-methyl-1H-pyrazol-4-yl)quinoline-2-carboxamide] |
| 12 | Cn1cc(-c2cc(C(N)=O)nc3cc(Cc4cc(C5CC5)nc(C(F)(F)F)c4)ccc23)cn1 [Example 6-26, 7-{[2-cyclopropyl-6-(trifluoromethyl)pyridin-4-yl]methyl}-4-(1-methyl-1H-pyrazol-4-yl)quinoline-2-carboxamide] |
| 169 | Cn1cc(-c2cc(C(N)=O)nc3c(F)c(CN4CCC(F)CC4)ccc23)cn1 [Example 7-27, 8-fluoro-7-[(4-fluoropiperidin-1-yl)methyl]-4-(1-methyl-1H-pyrazol-4-yl)quinoline-2-carboxamide] |
| 11 | COc1c(F)cc(-c2cc(C(N)=O)nc3cc(CCc4cnc(C)nc4)ccc23)cc1F [Example 8-54, 4-(3,5-difluoro-4-methoxyphenyl)-7-[2-(2-methylpyrimidin-5-yl)ethyl]quinoline-2-carboxamide] |
| 170 | N#Cc1cc(-c2ccc(F)cc2)c2ccc(CCc3cncnc3)cc2n1 [Example 8-13, 4-(4-fluorophenyl)-7-(2-pyrimidin-5-ylethyl)quinoline-2-carbonitrile] |
| 10 | COc1ccc(-c2cc(C(N)=O)nc3cc(C(C)Cc4ccc(C)nc4)ccc23)cc1 (stereo not shown) [Example 8-43, 4-(4-methoxyphenyl)-7-[1-methyl-2-(6-methylpyridin-3-yl)ethyl]quinoline-2-carboxamide] |
| 299 | NC(=O)c1cc(-c2ccc(F)cc2)c2ccc(C(=O)N3CCCC3)cc2n1 [Example 5-4, 4-(4-Fluorophenyl)-7-(pyrrolidin-1-ylcarbonyl)quinoline-2-carboxamide] |
| 8 | NC(=O)c1cc(-c2ccc(F)cc2)c2ccc(Cc3ccnc(CO)c3)cc2n1 [Example 6-7, 4-(4-fluorophenyl)-7-{[2-(hydroxymethyl)pyridin-4-yl]methyl} quinoline-2-carboxamide] |
